# From patent publication US20240293333A1, “TOPICAL DELIVERY OF LIPOPROTEIN-MIMETIC NANOPARTICLES” (published 2024)
# Tested on: mouse skin
# Test: Nitrogen mustard skin injury, skin thickness
compound,measurement,setting,value
C=C1/C(=C\C=C2/CCC[C@]3(C)[C@@H]([C@H](C)CCCC(C)(C)O)CC[C@@H]23)C[C@@H](O)C[C@@H]1O,Percent Increase in Skin Thickness (Day 5),"set 100 nM HDL-NP / 0.075 mg calcitriol per mouse per day, topical Days 0-3, relative to Day 0 (PBS 398%)",345%
same,Percent Increase in Skin Thickness (Day 5),"set 150 nM HDL-NP / 0.1 mg calcitriol per mouse per day, topical Days 0-3, relative to Day 0 (PBS 353%)",301%
same,Percent Increase in Skin Thickness (Day 5),"set 250 nM HDL-NP / 0.19 mg calcitriol per mouse per day, topical Days 0-3, relative to Day 0 (PBS 406%)",310%
same,Percent Increase in Skin Thickness (Day 5),"set 750 nM HDL-NP / 0.56 mg calcitriol per mouse per day, topical Days 0-3, relative to Day 0 (PBS 402%)",288%
